Patent US20250084183A1, “ENGINEERED COMPOSITIONS FOR BONE-TARGETED THERAPY” (William Marsh Rice University, priority 2021, published 2025)

How the values were obtained:
[1] = HA binding assay; details: for Percentage of the bound fraction: antibodies 1 mg/ml, 20 mg/ml hydroxyapatite, 37° C., 9 h, mean ± SEM
[2] = system: MDA-MB-361 breast cancer cells; assay: MDA-MB-361 bone metastasis xenograft model (para-tibial injection); details: for Survival, significance vs Control: endpoint BLI intensity over 10^7, log-rank test
[3] = Biodistribution of Cy7.5-labeled antibodies in mice bearing MDA-MB-361 tumors; format: in vivo, athymic nude mice; details: 72 h and 120 h after retro-orbital injection, sulfo-Cy7.5 label
Method: In vivo Distribution of Bone-Targeting Antibodies. […] 72 h and 120 h after antibody infusion, the major organs were collected and imaged for antibody distribution. […] Moreover, larger quantities of bone-targeting antibodies were present in tumor-bearing right leg bones compared to left healthy bone, likely due to L-Asp6 peptide-mediated targeting to the bone resorption niche. […] This effect has the potential to enhance antitumor activity at the tumor site, while at the same time decreasing systemic toxicity.
Biodistribution. Female athymic nude mice were injected para-tibia with MDA-MB-361 cells (2× 10^5 cells/animal). […] After 72 h and 120 h injection, the mice were imaged using IVIS. 72 h and 120 h injection, the mice were killed, and major organs including heart, liver, spleen, kidney, lung, and bone tumor tissue were removed. The fluorescence intensity in organs and tumor bearing tibiae were observed using IVIS.

[4] = system: SK-BR-3 cells; assay: In vitro cytotoxicity (MTT) against SK-BR-3; format: cell-based
Method: BT474, and MDA-MB-468 cells at 2×10^3 cells/well into 96-well plates. […] 20 AL of 3-(4,5-dimethylthiazol-2-yl)-2,5-diphenyltetrazolium bromide (MTT) solution (5 mg/mL) was then added to each well and incubated for another 4 h. Medium was aspirated and 150 AL DMSO was added to each well. The absorbance at 565 nm was measured by microplate reader (Infinite M Plex by Tecan) to quantify living cells.

[5] = Binding to bone cryosections (FITC anti-human IgG / xylenol orange); set-up: species or system C57BL/6 mice; details: 50 μg/mL, overnight incubation; xylenol orange (XO) labels bone
Method: Binding to bone cryosections. […] After washing 3 times with PBS, specimens were incubated for 30 min at 37° C. with Xylenol Orange (XO) (stock: 2 mg/ml, dilute 1:500, dilute buffer: PBS pH 6.5). After three washes with PBS, specimens were stained with Hoechst 33342 (stock 10 mg/ml, dilute 1:2000) for 10 min. Slides were then washed with PBS, air dried, and sealed with PROLONG™ gold anti-fade mountant (from ThermoFisher).

[6] = system: MDA-MB-361 cells; assay: Primary tumor model, MDA-MB-361 in mammary fat pads; format: in vivo, nude mice; details: 1 mg/kg
[7] = 1 mg/kg retro-orbital twice a week
[8] = TRAP-stained tibia sections, end of experiment, one-way ANOVA
[9] = end of experiment, one-way ANOVA
[10] = whole body BLI over the course of the experiment, two-way ANOVA

| Substance | Percentage of the bound fraction [1] [%] | Osteoclast number, significance vs Control [2, 8] | Serum Calcium, significance vs Control [2, 9] | Serum TRACP 5b, significance vs Control [2, 9] | Survival, significance vs Control [2] | Trabecular bone parameters BMD, significance vs Control ([2]; microCT, one-way ANOVA, Tukey) | Trabecular bone parameters BS/BV, significance vs Control ([2]; microCT, one-way ANOVA, Tukey) | Trabecular bone parameters BV, significance vs Control ([2]; microCT, one-way ANOVA, Tukey) | Trabecular bone parameters BV/TV, significance vs Control ([2]; microCT, one-way ANOVA, Tukey) | Trabecular bone parameters Tb. Th, significance vs Control ([2]; microCT, one-way ANOVA, Tukey) | BLI Progression, significance vs Control [2, 10] | further results |
| --- | --- | --- | --- | --- | --- | --- | --- | --- | --- | --- | --- | --- |
| Tras-LC/CH1/CT: trastuzumab with three L-Asp6 peptide sequences (LC, CH1, CT); SEQ ID NOs: 15-16 | 80.3 ± 1.1 | **** (**** P < 0.0001) | ns (ns represents P > 0.05) | * (* P < 0.05) | * (* P < 0.05) | ns (ns represents P > 0.05) | ns (ns represents P > 0.05) | ** (**P < 0.001) | * (*P < 0.05) | ** (**P < 0.001) | **** (**** P < 0.0001) | delay in tumor growth [2, 7]: 18.9 days; Osteoclast number, significance vs Tras [2, 8]: ns (ns represents P > 0.05); Serum Calcium, significance vs Tras [2, 9]: ns (ns represents P > 0.05); Serum TRACP 5b, significance vs Tras [2, 9]: ns (ns represents P > 0.05); Trabecular bone parameters BMD, significance vs Tras ([2]; microCT, one-way ANOVA, Tukey): * (*P < 0.05); Trabecular bone parameters BS/BV, significance vs Tras ([2]; microCT, one-way ANOVA, Tukey): ns (ns represents P > 0.05); Trabecular bone parameters BV, significance vs Tras ([2]; microCT, one-way ANOVA, Tukey): * (*P < 0.05); Trabecular bone parameters BV/TV, significance vs Tras ([2]; microCT, one-way ANOVA, Tukey): ns (ns represents P > 0.05); Trabecular bone parameters Tb. Th, significance vs Tras ([2]; microCT, one-way ANOVA, Tukey): ns (ns represents P > 0.05); Survival, significance vs Tras ([2]; mouse, in vivo): ns (key: **** P < 0.0001; *** P < 0.001; ** P < 0.01; * P < 0.05; ns represents P > 0.05); BLI Progression, significance vs Tras [2, 10]: ns (ns represents P > 0.05); intensity of the interosseous fluorescence signal vs Tras injected mice [3]: stronger; EC50 [4]: 0.0211 ± 0.0203 µM |
| Tras-LC: trastuzumab with L-Asp6 peptide inserted in light chain (LC, A153); SEQ ID NOs: 3-4 | 68.3 ± 4.6 | – | – | – | – | – | – | – | – | – | – | – |
| trastuzumab [reference compound] | 23.9 ± 4.7 | **** (**** P < 0.0001) | ns (ns represents P > 0.05) | ns (ns represents P > 0.05) | ns (ns represents P > 0.05) | ns (ns represents P > 0.05) | ns (ns represents P > 0.05) | ns (ns represents P > 0.05) | ns (ns represents P > 0.05) | ns (ns represents P > 0.05) | ** (** P < 0.01) | affinity for HA (binding kinetics, FIG. 2D) ([1]; trastuzumab series): only slight affinity for HA; FITC signal on non-decalcified bone sections [5]: no fluorescence; prolongation of median mouse survival [2, 7]: 9.7 days; tumor growth (BLI) [2, 7]: failed to control long-term tumor growth; increase in tumor size (BLI signal day 1 to 80) ([2]; 1 mg/kg twice a week, p<0.0001 Tras-CH1/CT vs Tras): 1562.7±801.6; histological analysis of bone sections (H&E) ([2]; FIG. 3L): invasion of tumor cells into the bone matrix and into the adjacent tissue; micro CT: osteolytic bone destruction / bone loss ([2]; tibiae, day 81, 1 mg/kg): extensive osteolytic bone destructions; tumor growth in the mammary fat pads [6]: significantly decreased the tumor growth |
